Results published in patent US20230295288A1 (TILLOTTS PHARMA, published 2023).

By UniProt entry, the sequences of proteins in these tests, tags left out. Residues count along the entry.
UniProt P01375, 77-233 limits assumed: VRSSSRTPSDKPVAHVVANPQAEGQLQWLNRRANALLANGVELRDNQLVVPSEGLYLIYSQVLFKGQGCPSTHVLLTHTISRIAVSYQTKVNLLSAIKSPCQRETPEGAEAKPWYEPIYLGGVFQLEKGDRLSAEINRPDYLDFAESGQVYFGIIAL
UniProt P55899, 24-297 limits assumed, chain 1 of 2: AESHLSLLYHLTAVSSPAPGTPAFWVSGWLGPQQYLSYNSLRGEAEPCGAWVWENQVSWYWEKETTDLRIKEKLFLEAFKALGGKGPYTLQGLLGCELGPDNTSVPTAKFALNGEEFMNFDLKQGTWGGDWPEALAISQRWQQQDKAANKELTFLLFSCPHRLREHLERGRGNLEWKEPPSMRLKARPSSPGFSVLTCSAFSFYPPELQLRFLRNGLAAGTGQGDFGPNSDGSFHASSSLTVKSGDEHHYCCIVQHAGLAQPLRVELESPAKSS

Legend:
TNFα = TNFα (human, UniProt P01375 77-233); experiment: cell-based or functional assay
[1] = biological target: T1, monomeric His-tagged human FcRn (human, UniProt P55899 24-297; P61769 21-119); experiment: SPR (Biacore 3000), antibody amine-coupled, monomeric His-tagged hFcRn as analyte, pH 6.0, 1:1 Langmuir model, 25 °C
T1 construct: The b2m chain is an addition from general knowledge; also called hFcRn; neonatal Fc receptor

B1: infliximab (antibody)
chain 1: not shown
chain 2: DILLTQSPAILSVSPGERVSFSCRASQFVGSSIHWYQQRTNGSPRLLIKYASESMSGIPSRFSGSGSGTDFTLSINTVESEDIADYYCQQSHSWPFTFGSGTNLEVKRTVAAPSVFIFPPSDEQLKSGTASVVCLLNNFYPREAKVQWKVDNALQSGNSQESVTEQDSKDSTYSLSSTLTLSKADYEKHKVYACEVTHQGLSSPVTKSFNRGEC
IC50 (read off the curve), L929 TNFα neutralisation [lower panel] (TNFα): ~0.04 µg/mL
Kd [1]: 425 nM
